The values that follow come from ChEMBL document CHEMBL1126447 (Bioorg Med Chem Lett, 1992).

The chains behind the UniProt entries cited, without tags or fusion partners. Where a name states a change or a piece, a line headed by the entry shows the natural chain unless it says otherwise.
UniProt P22303: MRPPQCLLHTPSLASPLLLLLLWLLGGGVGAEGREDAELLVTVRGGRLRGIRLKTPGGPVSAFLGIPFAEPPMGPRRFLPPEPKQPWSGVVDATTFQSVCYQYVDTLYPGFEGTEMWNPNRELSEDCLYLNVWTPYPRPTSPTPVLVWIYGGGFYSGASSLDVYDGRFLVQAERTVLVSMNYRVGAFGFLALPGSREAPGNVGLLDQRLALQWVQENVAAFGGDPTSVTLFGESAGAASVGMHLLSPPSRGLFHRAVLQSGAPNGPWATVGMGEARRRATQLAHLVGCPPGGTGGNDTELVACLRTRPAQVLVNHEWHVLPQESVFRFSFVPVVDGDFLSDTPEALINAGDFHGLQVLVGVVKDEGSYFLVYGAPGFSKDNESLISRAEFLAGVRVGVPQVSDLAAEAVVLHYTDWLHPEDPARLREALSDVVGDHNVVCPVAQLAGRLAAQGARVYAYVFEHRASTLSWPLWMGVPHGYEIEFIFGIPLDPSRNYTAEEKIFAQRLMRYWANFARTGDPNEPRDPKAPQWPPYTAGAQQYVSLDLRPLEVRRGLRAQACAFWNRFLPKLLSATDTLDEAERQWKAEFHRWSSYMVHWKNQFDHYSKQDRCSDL
UniProt O42275: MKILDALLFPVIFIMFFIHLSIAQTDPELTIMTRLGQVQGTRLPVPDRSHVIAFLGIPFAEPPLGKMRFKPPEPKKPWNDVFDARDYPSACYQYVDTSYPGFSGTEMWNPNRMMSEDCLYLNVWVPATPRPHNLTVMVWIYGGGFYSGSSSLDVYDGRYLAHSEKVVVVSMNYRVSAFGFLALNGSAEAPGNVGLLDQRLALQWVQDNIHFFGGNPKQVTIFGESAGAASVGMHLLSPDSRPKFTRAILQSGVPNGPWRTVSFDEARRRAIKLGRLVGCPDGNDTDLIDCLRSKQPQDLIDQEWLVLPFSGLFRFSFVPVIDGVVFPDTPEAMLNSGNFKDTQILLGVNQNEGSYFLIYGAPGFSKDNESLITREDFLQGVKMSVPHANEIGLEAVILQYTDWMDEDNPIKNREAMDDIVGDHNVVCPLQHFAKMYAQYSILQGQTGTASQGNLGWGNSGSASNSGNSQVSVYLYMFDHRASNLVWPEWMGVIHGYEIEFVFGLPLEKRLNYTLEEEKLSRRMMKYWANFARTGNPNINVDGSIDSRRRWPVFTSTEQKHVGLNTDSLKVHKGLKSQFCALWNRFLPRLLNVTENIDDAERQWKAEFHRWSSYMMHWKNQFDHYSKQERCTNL

Assay [1] has as its target Acetylcholinesterase (Homo sapiens, UniProt P22303).
The target in assay [2] is Acetylcholinesterase (Electrophorus electricus, UniProt O42275).

For orientation: IC50 means the concentration needed to halve the response being measured. A low value points to inhibition by little substance. Take `Nc1c2c(nc3ccccc13)C1CCC2C1` (configuration not stated): on Acetylcholinesterase [1], inhibition was half-maximal at 31.5 nM (IC50). `CNC(=O)Oc1ccc2c(c1)[C@]1(C)CCN(C)[C@@H]1N2C` [PHYSOSTIGMINE]: the IC50 against Acetylcholinesterase [2] came to 275 nM.
